# Values quoted from earlier work as cited in patent US20050137807A1, “Method of visualization of the ADME properties of chemical substances” (priority 2003, published 2005).
# Details: water solubility, from the literature; cited from earlier work
smiles,measurement,value
O=C(O)c1cc(/N=N/c2ccc(S(=O)(=O)Nc3ccccn3)cc2)ccc1O [Sulfasalacine],Solubility,2.44 µg/mL
